Results reported in patent publication US20060045884A1, “Vaccines for autoimmune and infectious disease” (Board of Regents, priority 2004, published 2006).

Test system: peptide-loaded T2 cells
Assay: Induction of primary CTL responses with peptide-pulsed T2 cells and 4-hr cytotoxicity against peptide-loaded T2 cells
Format: cell-based, human
Conditions: E:T 50:1

HTLV-1 Tax: HTLV-1 peptide (aa 11-19) with known high binding affinity to HLA-A2.1 [reference compound]
specific lysis of T2 cells loaded with irrelevant peptide by CTL specific for either MY2 or MY4: < 20% | specific lysis of T2 cells loaded with irrelevant peptide by CTL specific for either PR1 or PR-2: < 20%
